Biological target: T1, Suppressor of tumorigenicity 14 protein (Homo sapiens, UniProt Q9Y5Y6)
T1 sequence (Q9Y5Y6 whole entry): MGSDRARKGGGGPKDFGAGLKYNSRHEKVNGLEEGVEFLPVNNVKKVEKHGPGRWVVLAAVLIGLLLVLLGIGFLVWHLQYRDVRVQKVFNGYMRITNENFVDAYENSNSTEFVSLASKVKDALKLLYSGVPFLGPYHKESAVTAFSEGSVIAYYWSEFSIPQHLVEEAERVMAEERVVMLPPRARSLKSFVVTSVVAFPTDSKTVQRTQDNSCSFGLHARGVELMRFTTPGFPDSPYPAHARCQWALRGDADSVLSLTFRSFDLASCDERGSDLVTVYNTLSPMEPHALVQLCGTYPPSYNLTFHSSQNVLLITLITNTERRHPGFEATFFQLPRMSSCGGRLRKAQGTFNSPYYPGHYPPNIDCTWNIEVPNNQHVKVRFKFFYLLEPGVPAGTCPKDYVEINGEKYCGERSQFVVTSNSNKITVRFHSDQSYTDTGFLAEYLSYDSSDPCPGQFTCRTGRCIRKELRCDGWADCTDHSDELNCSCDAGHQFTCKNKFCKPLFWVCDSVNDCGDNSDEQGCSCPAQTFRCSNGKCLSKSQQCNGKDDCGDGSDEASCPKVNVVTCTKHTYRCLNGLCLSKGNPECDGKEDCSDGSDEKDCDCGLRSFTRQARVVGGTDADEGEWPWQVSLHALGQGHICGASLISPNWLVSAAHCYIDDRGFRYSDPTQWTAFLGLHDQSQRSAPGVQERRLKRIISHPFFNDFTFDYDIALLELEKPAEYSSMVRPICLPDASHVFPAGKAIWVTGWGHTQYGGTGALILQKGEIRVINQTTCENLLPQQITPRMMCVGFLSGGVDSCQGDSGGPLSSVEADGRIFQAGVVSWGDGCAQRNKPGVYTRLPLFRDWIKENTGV
Test: Tight binding inhibition of human matriptase expressed in Drosophila melanogaster S2 cells using Boc-QAR-AMC as substrate incubated for 15 mins prior to substrate addition measured for 30 mins by fluorimetric analysis

C[C@H](NC(=O)[C@H](CCC(N)=O)NC(=O)[C@@H](N)CCCN=C(N)N)C(=O)N[C@H](CCCN=C(N)N)C(=O)c1nc2ccccc2s1
Ki: 4.6 nM

From ChEMBL document CHEMBL2086329, “Design and synthesis of potent, selective inhibitors of matriptase” (ACS Med Chem Lett, 2012)
